Measured properties of organic chemicals

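These are experimental values that the OPERA curators gathered from public databases to train and test their QSAR models. The files give a single number for a compound and property, which may rest on several reports. How each value was measured is not recorded, so precision varies. A value may pool stereoisomers or salt forms, and the file does not say which form was measured. Some upstream entries may be estimates or bounds without being marked so.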

Melting points are in °C.
Boiling points are in °C, nominally at 760 mmHg.
The octanol-water partition coefficient is given as log10; larger values mean a more lipophilic compound.
Water solubility is log10 of mol/L, nominally at 25 °C; higher is more soluble.
Vapor pressures (log10 mmHg) refer to near room temperature, 15 to 30 °C; higher is more volatile.
The Henry's law constant is on a log10 scale in atm·m3/mol (set defined at 25 °C); higher favours air over water.
fu is the fraction unbound in human plasma, from 0 to 1.
Intrinsic clearance (human, µL/min per 10^6 hepatocytes): higher is faster turnover, and 0 stands for none detected.
Cells with "–" have no entry in this list.

| structure (SMILES) | name | mp (°C) | BP (°C) | logP | log solubility (log10 mol/L) | log vapor pressure (log10 mmHg) | Henry's law constant (log10 atm·m3/mol) | fraction unbound | Clint (µL/min/10^6 cells) |
|---|---|---|---|---|---|---|---|---|---|
| C[C@]12CC[C@H]3[C@@H]([C@H]4C[C@H]4[C@]4(O)C[C@@H](O)CC[C@]34C)[C@@H]1[C@@H]1C[C@@H]1[C@@]2(O)C#CCO | – | – | – | 1.12 | -2.46 | – | – | – | – |
| C=CC1(C)CCC(C(C)(C)O)O1 (stereo not drawn) | – | – | – | – | -1.8 | 0.136 | – | – | – |
| Nc1cc(-c2ccncc2)c[nH]c1=O | Amrinone | – | – | – | -1.524 | – | – | 0.89 | – |
| CCCCCCOC(=O)c1ccccc1O | Hexyl salicylate | -4.15 | – | – | – | -3.238 | – | – | – |
| NC1=C(Cl)C(=O)c2ccccc2C1=O | 2-Amino-3-chloro-1,4-naphthoquinone | – | – | – | -4 | – | -7.521 | – | – |
| CCc1cc(C(N)=S)ccn1 | Ethionamide | – | – | 0.435 | -2.259 | – | – | 0.7 | – |
| CCCCNC(=S)N(CCCC)CCCC | Tributylthiourea | – | – | 4 | -4.184 | -4.786 | – | – | – |
| C=CC(=O)OCC(C)OCCOCC(CC)(COCCOCC(C)OC(=O)C=C)COCCOC(C)COC(=O)C=C (stereo not drawn) | – | -67 | – | – | -3.365 | – | – | – | – |
| CC(C)CCCC(C)CCCCCCCCCC(=O)OCC(C)(C)COC(=O)CCCCCCCCCC(C)CCCC(C)C (stereo not drawn) | – | -31.75 | – | – | -7.901 | -9.869 | – | – | – |
| NC(=O)N[C@@H](CC(=O)O)C(=O)O | N-Carbamoylaspartic acid | 174.5 | – | – | -1.678 | – | – | – | – |
| COc1ccccc1C=Cc1ccc(-c2ccc(C=Cc3ccccc3OC)cc2)cc1 | 1,1'-Biphenyl, 4,4'-bis[2-(2-methoxyphenyl)ethenyl]- | 219.6 | – | 7.7 | -7.145 | – | – | – | – |
| Nc1c(CC(=O)O)cccc1C(=O)c1ccc(Br)cc1 | Bromfenac | – | – | 3.4 | -4.424 | – | – | – | – |
| OCOCCOCO | 1,2-Bis[hydroxymethoxy]ethane | -48.33 | – | -1.36 | – | – | – | – | – |
| Cc1cc(O)c(C(C)C)cc1C | 2-Isopropyl-4,5-dimethylphenol | 70.2 | – | – | -2.809 | – | – | – | – |
| c1ccc2c(c1)CC1COCOC21 (stereo not drawn) | 4,4a,5,9b-Tetrahydroindeno(1,2-d)-1,3-dioxin | 36.4 | – | 1.76 | -1.656 | -2.725 | – | – | – |
| CCOC(=O)ON=C(C)C(=O)c1ccccc1 | 1,2-Propanedione, 1-phenyl-, 2-[O-(ethoxycarbonyl)oxime] | 59.3 | – | 2.84 | -3.264 | -4.426 | – | – | – |
| C=CCc1ccc(OC(C)=O)c(OC)c1 | (2-Methoxy-4-prop-2-enylphenyl) acetate | – | – | 2.8 | -2.703 | – | – | – | – |
| COc1ccccc1NC(=O)c1cc2ccccc2cc1O | 3-Hydroxy-2-naphthoic o-anisidide | – | – | 2.9 | -5.145 | – | – | – | – |
| CC(C)=CCC/C(C)=C/CC/C(C)=C/C=O | (E,E)-Farnesal | 16.7 | 302 | – | -5.712 | -2.759 | – | – | – |
| CCCCOC(=O)c1ccc(C(=O)OCCCC)cc1 | 1,4-Dibutyl benzene-1,4-dicarboxylate | 14.7 | – | – | – | -3.545 | – | – | – |
| O=C=NCc1cccc(N2C(=O)N(c3cccc(CN=C=O)c3)C2=O)c1 | – | 155.8 | – | – | -5.037 | -9.443 | – | – | – |
| CCCCCCCCCCCC(=O)N(C)C | N,N-Dimethyldodecanamide | 19 | – | 5.2 | -3.909 | -2.894 | – | – | – |
| CC(C)c1ccc(C=O)cc1 | 4-Isopropylbenzaldehyde | -50.25 | – | – | -2.478 | -1.581 | – | – | – |
| O=C1CCCCCN1C(=O)c1cccc(C(=O)N2CCCCCC2=O)c1 | – | – | – | 1.775 | -3.958 | – | – | – | – |
| C=C(C)C(=O)OC1CC(C)CC(C)(C)C1 (stereo not drawn) | 3,3,5-Trimethylcyclohexyl 2-methylprop-2-enoate | – | 240.6 | 5.25 | -4.599 | -1.339 | – | – | – |
| CN(C)Cc1ccccc1Cl | 1-(2-Chlorophenyl)-N,N-dimethylmethanamine | – | 217 | 2.7 | -1.849 | -0.701 | – | – | – |
| C=C[C@@](C)(/C=C/c1ccc(O)cc1)CCC=C(C)C | Bakuchiol | – | – | 5.09 | -6.337 | -6.695 | – | – | – |
| Cc1ccc([C@@H]2O[C@H](COC(=O)C(C)(C)C)[C@@H](OC(=O)C(C)(C)C)[C@H](OC(=O)C(C)(C)C)[C@H]2OC(=O)C(C)(C)C)cc1Cc1ccc(-c2ccc(F)cc2)s1 | – | 141.7 | – | – | – | -9.907 | – | – | – |
| Cn1sccc1=O | 2-Methyl-3(2H)-isothiazolone | 47.5 | – | -0.33 | 0.669 | -2.129 | – | – | – |
| CC(C)[NH2+][B-](F)(F)F | Trifluorido(propan-2-amine)boron | 108 | – | – | – | -2.663 | – | – | – |
| N#CC(c1ccc(Cl)cc1)c1c(Cl)cc(-n2ncc(=O)[nH]c2=O)cc1Cl (stereo not drawn) | Diclazuril | – | – | – | -7.611 | -6.233 | – | – | – |
| CC(C)Nc1ccc(NC(C)C)c2c1C(=O)c1ccccc1C2=O | 1,4-bis(n-isopropylamino)anthraquinone | – | – | – | – | – | – | 0.00728 | 0 |
| CC(C)C(=O)OCCc1ccccc1 | 2-Phenylethyl 2-methylpropanoate | -55.16 | – | – | -3.106 | -1.079 | – | – | – |
| CC1Cc2ccccc2N1NC(=O)c1ccc(Cl)c(S(N)(=O)=O)c1 (stereo not drawn) | Indapamide | – | – | 2.2 | -4.029 | – | – | – | – |

Excerpt, the final 3 entries:

| structure (SMILES) | name | mp (°C) | BP (°C) | logP | log solubility (log10 mol/L) | log vapor pressure (log10 mmHg) | Henry's law constant (log10 atm·m3/mol) | fraction unbound | Clint (µL/min/10^6 cells) |
|---|---|---|---|---|---|---|---|---|---|
| CC(C)Nc1ccc(NC(C)C)c2c1C(=O)c1ccccc1C2=O | 1,4-bis(n-isopropylamino)anthraquinone | – | – | – | – | – | – | 0.00728 | 0 |
| CC(C)C(=O)OCCc1ccccc1 | 2-Phenylethyl 2-methylpropanoate | -55.16 | – | – | -3.106 | -1.079 | – | – | – |
| CC1Cc2ccccc2N1NC(=O)c1ccc(Cl)c(S(N)(=O)=O)c1 (stereo not drawn) | Indapamide | – | – | 2.2 | -4.029 | – | – | – | – |

Source: data files of OPERA 2.9 (Mansouri et al.), github.com/kmansouri/OPERA.